Reference: ChEMBL document CHEMBL6134892, “Discovery and Evaluation of DA-302168S as an Efficacious Oral Small-Molecule Glucagon-Like Peptide-1 Receptor Agonist” (J Med Chem, 2025)

Legend:
Cynomolgus monkey [1] = details: Macaca fascicularis; dose 3.0 mg/kg, route po, time 180.0 min
Cynomolgus monkey [2] = details: Macaca fascicularis; dose 10.0 mg/kg, route po, time 180.0 min
[3] = AUC last in Cynomolgus monkey at 0.5 mg/kg, iv measured up to 48 hrs by LC-MS/MS analysis; type: ADME, organism-based, Macaca fascicularis; details: in vivo

**Q.** Which AUC (Cynomolgus monkey [1]) does the source give for O=C(O)c1ccc2nc(Cc3ccc(-c4ccc(F)c(OCc5ccc(Cl)c6ccoc56)n4)cc3F)n(C[C@@H]3CCO3)c2c1 here?
**A.** Its AUC is 7450 µM·h.

**Q.** What about the AUC (Cynomolgus monkey [2]) of the same compound?
**A.** Its AUC is 6870 µM·h.

**Q.** And the AUC(0-t) at 48 h [3]?
**A.** Its AUC(0-t) at 48 h is 1770 ng·h/mL.
